Results on 6 substances are retold here after patent US20220047701A1, “COMBINATION OF HER2/NEU ANTIBODY WITH HEME FOR TREATING CANCER” (INSERM (Institut National de la Santé et de la Recherche …, priority 2018, published 2022).

In data set [1] the test system is recombinant human neonatal Fc receptor (FcRn). The data set can be described thus: SPR binding of heme-exposed Trastuzumab to FcRn. Particulars: pH 5.4, 25° C., native vs heme-exposed.
For the next data set, the system named is SKBR3 cells. The data set can be described thus: Direct and complement-mediated cytotoxicity (WST-1), SKBR3. It counts as cell-based, human. The following applies: for complement-dependent cytotoxicity: in the presence of complement. The procedure:
(§1) Cells were treated on 96-wells plates with flat bottom and low evaporation lid (Coster, USA). MDA-MB-231 or SKBR3 breast cancer cells were plated and left for 2 hours to adhere. […] The Ab was diluted to a final concentration of 3.7 μg/ml. As a source of complement, baby rabbit complement (AbD Serotec) was added to obtain a dilution of ×5 (MDA-MB-231 cells) or ×8 (SKBR3 cells). As control, heat inactivated fetal calf serum was added at the same ratios. To evaluate the amount of alive cells, WST-1 dye (Roche) was added after 5 days of incubation at 37° C. The absorbance at 450 nm and 690 nm was read after 2 hours incubation at 37° C.

Data set [2] relates to MDA-MB-231 cells. The experiment in a line: Flow cytometry binding to breast cancer cells (MDA-MB-231). The following applies: low HER2/neu expression; 10 μg/ml. Format: cell-based, human.
In the next data set the target is HER2/neu mimotope. The experiment in a line: SPR binding of native and heme-exposed Trastuzumab to HER-2 mimotope. Set-up: species or system human. Particulars: immobilized HER2/neu mimotope.
The nature of data set [3]: Size-exclusion chromatography, molecular composition. Particulars: 6.7 μM IgG, 13.4 μM heme where exposed. It counts as physicochemical.
The subject of data set [4] is MDA-MB-231 cells. The experiment in a line: Direct and complement-mediated cytotoxicity (WST-1), MDA-MB-231. It counts as cell-based, human. The following applies: in the presence of complement. As for the experimental part: as §1
In a further data set the test system is immobilized Trastuzumab. The data set can be described thus: ELISA induction of antibody homophilicity by heme. Format: binding. Particulars: biotinylated Trastuzumab. As for the experimental part:
The plates were blocked with PBS 0.25% containing Tween 20 for 1 hour. […] IgG was then diluted two times in PBS-T before incubation on plates for 2 h at room temperature. Following extensive washing, the plates were incubated for 30 min with streptavidin-HRP (Southern Biotech).
To evaluate the specificity of heme, this method was performed using an analog of heme, zinc protoporphyrin (ZnPP). […] IgG was then diluted ten times in PBS-T before incubation on the plates for 2 h at room temperature.

In data set [5] the test system is Thyroglobulin, Factor IX, hemoglobin, myoglobin, cytrochrome c, insulin. The experiment in a line: ELISA reactivity to a panel of antigens after heme exposure. Format: binding.
Data set [6] relates to more than 9,000 human proteins. The data set can be described thus: Protein microarray (ProtoArray) reactivity. Format: binding. The procedure: First, the arrays were equilibrated at 4° C. for 15 min and then incubated with blocking buffer recommended by the manufacturer for 1 h at 4° C. on a circular shaker. After incubation, microarrays were washed once with PBS, 0.1% Tween 20, containing synthetic block (ThermoFisher Scientific) for 5 min. The monoclonal IgG1 (10 μM) was pre-treated or not with heme (20 μM). […] Following 90 min of incubation at 4° C. on a circular shaker, each array was washed 5 times for 5 min each at 4° C. […] As described previously, the arrays were washed 5 times before being centrifuged in a 50 ml tube at 200×g for 1 minute at room temperature. Scanning of the arrays was performed on the next day with a GenePix 4000B Microarray Scanner. Fluorescence data were acquired by aligning the Genepix Array List onto the microarray using Genepix Pro analysis software. The resulting Genepix Results (GPR) files were imported into Invitrogen's Prospector 5.2 for further analysis.

For data set [7], the system named is SK-BR-3 cells. The experiment in a line: Flow cytometry binding to breast cancer cells (SK-BR-3). Format: cell-based, human. Particulars: high HER2/neu expression; 10 μg/ml; heme-exposed vs native.
For data set [8], the system named is SK-BR-3 cells. The experiment in a line: Antibody-mediated cellular cytotoxicity with PBMCs (HER2/neu high expressing line). It counts as cell-based, human. The following applies: 4 h with PBMCs, LDH release.
The test system of a further data set is breast cancer cells. The data set can be described thus: Deposition of C3 on the surface of breast cancer cells (flow cytometer). It counts as cell-based. The following applies: antibody pre-treated with 14 μM heme; 50% human serum.
Data set [9] relates to MDA-MB-231 cells. The data set can be described thus: Antibody-mediated cellular cytotoxicity with PBMCs (HER2/neu low expressing line). Format: cell-based, human. The following applies: 4 h with PBMCs, LDH release.

In the case of “Trastuzumab: human epidermal factor receptor (HER2/neu)-specific humanized IgG1 [reference compound]”, the “binding affinity to FcRn” value in data set [1] is on record as “identical binding affinities”. Also, the cytotoxicity entry in the data set with SKBR3 cells (in the presence of Trastuzumab) was “clear cytotoxicity”. For the same substance, the binding to cells result with MDA-MB-231 cells [2] was “low intensity”. On HER2/neu mimotope, this substance had an equilibrium dissociation constant (Kd) of 3.8 nM. Also, the “molecular composition (elution)” value in data set [3] is “eluted only as monomers”. Besides, the complement-dependent cytotoxicity result in the data set with MDA-MB-231 cells [4] is given as “negligible decrease in the percentage of live cells”. The “self-binding to immobilized Trastuzumab” value in the data set on immobilized Trastuzumab is reported as “negligible self-binding activity”. The reactivity to insulin result in data set [5] (after exposure to heme) was “not affected by heme”. The “binding to human proteins” value in data set [6] was “binding to very few proteins”.
As for “monomeric fraction: monomeric fraction of heme-treated Trastuzumab collected by size-exclusion chromatography”, the complement-dependent cytotoxicity result with SKBR3 cells is “same cytotoxic effect as the native Trastuzumab”.
Take “Fc fragments: Fc fragments of Trastuzumab exposed to heme”: the “molecular composition (elution)” value in data set [3] was “remained in a monomeric form”.
In the case of “first two oligomeric fractions: first two of the oligomeric fractions of heme-treated Trastuzumab from size-exclusion chromatography”, in the data set on SKBR3 cells, the complement-dependent cytotoxicity entry was “even higher cytotoxic effect than the heme-treated Ab”.
With “oligomeric fractions: the 3 oligomeric fractions of heme-treated Trastuzumab collected by size-exclusion chromatography”, the complement-dependent cytotoxicity result in the data set on SKBR3 cells is “same cytotoxic effect as the heme-treated Trastuzumab”.
With “heme-exposed Trastuzumab: Trastuzumab pre-treated with heme; elutes as monomeric and oligomeric species”, the “binding affinity to FcRn” value in data set [1] is “identical binding affinities”. Further, the binding to cells result in the data set with SK-BR-3 cells [7] was “no difference between native and heme-exposed Ab”; with MDA-MB-231 cells [2] it was “No significant difference”. Moreover, the values for the complement-dependent cytotoxicity result in the data set on SKBR3 cells and with MDA-MB-231 cells [4] were “significantly higher” and “no significant difference”, respectively. On HER2/neu mimotope, binding was put at a Kd of 6.6 nM. Besides, in data set [3], the “molecular composition (elution)” value was “eluted both as monomeric and oligomeric species”. In addition, the “ADCC cytotoxic potential, heme-exposed vs native” value in the data set on SK-BR-3 cells [8] and in the data set with MDA-MB-231 cells [9] was “No difference in the cytotoxic potential” throughout. Moreover, the “self-binding to immobilized Trastuzumab” value with immobilized Trastuzumab is given as “strong binding in a bell-shaped dependent manner”. Moreover, the “binding to panel of unrelated polypeptide antigens” value in data set [5] (heme 0, 0.078-20 μM, IgG 0.2 μM) was “binding to most of them, in a heme concentration dependent manner”. The “deposition of C3 / complement activation on the cellular surface” value in the data set with breast cancer cells was “considerably high capacity to activate the complement on the cellular surface”. Besides, the “binding to human proteins” value in data set [6] is listed as “considerable gain of reactivity by binding to a large number of human proteins”.
